## Measured affinities in a library of Ab-14 light chain variants

Target: peptide PDVDLGDISGINAS, taken from heptad repeat 2 (HR2) of SARS-CoV-2 spike.

The variants keep the heavy chain, the linker and the frameworks of Ab-14 (scFv order VH, the linker GGGGSGGGGSGGGGS, VL).
VH: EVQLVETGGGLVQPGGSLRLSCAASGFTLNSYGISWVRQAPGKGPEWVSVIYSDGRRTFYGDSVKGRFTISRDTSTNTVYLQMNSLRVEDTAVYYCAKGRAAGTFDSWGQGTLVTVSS
VL: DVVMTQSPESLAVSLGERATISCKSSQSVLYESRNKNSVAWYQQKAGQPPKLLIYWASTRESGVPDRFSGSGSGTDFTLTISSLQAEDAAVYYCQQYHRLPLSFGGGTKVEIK

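This is the validation round: designs drawn from the data on random variants, tested in the same kind of assay. Group labels follow the data file (Ctrl: baseline library sampled from a position-specific scoring matrix, with some repeated check sequences; Rand: our label for a block that the file lists under HC and that is probably the random mutants of the ten best first-round binders; En: ensemble of fine-tuned language models; GP: Gaussian process model; HC: hill climbing; Gen: genetic algorithm; Gibbs: Gibbs sampling; a sequence that several methods proposed may carry one label only). AlphaSeq pools MATa yeast showing the antibodies with MATalpha yeast showing the peptide. After mating in shaken culture at 30 °C for 16 h, diploids were selected and their barcode pairs sequenced. The ratio of observed to expected reads was calibrated, replicate by replicate, on BCL2-family standards whose Kd was known from biolayer interferometry. Mating was done six times.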

Each variant is given by its three light chain CDRs, as the data file delimits them; those of the parent are KSSQSVLYESRNKNSVA, WASTRES, QQYHRLPLS. Scale: log10 of Kd in nM, estimated from mating counts; low values are strong binders. Averages over replicates are reported, and they cover detected replicates only. A pair that was not seen in any replicate is written "nd"; this usually means weak binding, but a binder can also be missed. Three control strains display no target. For all light chain designs, 4% of the pairings with them gave a signal, with a median of 2.64 and one signal in twenty below 1.59, so weak values seen in few replicates may be background. The authors averaged sequences with at least three values out of six and counted those with two or fewer as poor binders. The range of this assay differs from that of the first round, and the authors advise against merging the two. The parent sequence was in this pool as ten entries: three were never detected, three once, and four in most replicates, with averages from 0.34 to 2.37. Some sequences occur more than once in the pool; their replicates are pooled.

| log10 Kd (nM), mean | replicates with signal | CDR-L1 | CDR-L2 | CDR-L3 | group |
|---|---|---|---|---|---|
| 0.35 | 6/6 | KLQMRMLYESRMKNSVA | NASLRES | QQYHRLPLS | GP_Gibbs |
| 0.79 | 6/6 | KSSQSVLYESANKNSVA | QASTRES | QQYHRLPLS | Ctrl |
| 0.17 | 6/6 | KIEQSELYESRNKNSVA | NASTRES | QQYHRLPLS | GP_Gen |
| -0.10 | 6/6 | KLSQSVLYESRNSNSVA | NASTRMS | QQYHRLPLS | GP_Gen |
| 2.26 | 2/6 | KISQSVFYLSRNKNSVA | WASTRRS | QQYERLPLS | Ctrl |
| 1.79 | 6/6 | KSSQSVNTESRNFNSVA | WASTRES | QQYHRLPLS | Ctrl |
| 0.11 | 6/6 | MFKQSIEGNPLNTNNIA | DADSVTS | QQYARLPLF | En_Gibbs |
| 1.63 | 6/6 | KTTQSVLYESRNKNSVA | KASTRES | QQYHRLPLI | Ctrl |
| nd | 0/6 | KSSQSVLYESRCKNSVA | WATTRES | QQYHRLNLS | Ctrl |
| 0.33 | 6/6 | KLSQSVLYESRVKNSVA | NASTRMS | QQYHRLPLS | GP_Gen |
| -0.01 | 6/6 | KLQQSVLYESRNKNSVA | NASTRLE | QQYHRLPLS | GP_Gen |
| -0.06 | 6/6 | KFSQSQLYESRTKNGVA | NASTRES | QQYHRLPLS | GP_HC |
| -0.19 | 6/6 | KLQQGVLMESRNKNSVA | NAGKREE | QQYHRLPLS | GP_Gibbs |
| 0.05 | 6/6 | KLSQSVLYESRNTNSVA | NASTRCS | QQYHRLPLS | GP_Gen |
| 1.44 | 6/6 | MISQLYNMGTFAINSVA | QASERNE | QQYDRLPLM | En_Gen |
| 0.51 | 6/6 | KLQQSQLYESRNKNSVA | NASKRES | QQYHRLPLS | GP_Gen |
| -0.15 | 12/12 | KSSPSVLYESRNKNSVA | DASTRES | QQYHRLPLS | Ctrl+GP_Gibbs |
| 1.25 | 4/6 | TLSGHQYNYGQKKNSIA | EDNNRRL | QQYWRLPLS | En_Gibbs |
| nd | 0/6 | KQSQSILCESRNKNSVA | DASTRES | LQYHRLPLS | Rand |
| -0.35 | 6/6 | KLSQQDEYESRNKNSVA | QASCREQ | QQYHRLPLS | GP_Gibbs |
| 1.64 | 6/6 | KLRQVTGYESYNKNSVA | QTSTRAS | QFYHRLPLS | En_HC |
| 1.98 | 1/6 | KSSGSVLYESREKNSVA | WASTRSS | QQYHRLPLS | Ctrl |
| 0.70 | 6/6 | KISGYLNHESKNKNSVA | EMVNRES | QQYDRLPLS | En_HC |
| 0.16 | 6/6 | KSSQSDPYESRNKNSVA | EASTRES | QQYHRLPLS | GP_Gen |
| 0.86 | 6/6 | KYPQSGLYESTNKNSVA | WASTRES | QQYHRLPLS | Ctrl |
| -0.01 | 6/6 | NISQMFYMETKNVNNVA | QTSTRES | QDYHRLPLS | En_HC |
| 0.59 | 6/6 | NITEIFDNMGDQRSNVA | NGETLFH | QQYDRLPFL | En_Gibbs |
| 2.19 | 4/6 | MIHESYGLMSVKQSSIA | DNSTRED | QQYDRLPLS | En_Gen |
| 1.35 | 4/6 | HISMMVGTKGYNKRSVA | NAETRED | QQYHRLPLS | En_HC |
| nd | 0/6 | KSSQSVLYESGNTNSVA | WASTRES | QQYSRLPLS | Ctrl |
| -0.50 | 6/6 | KLSPSVLYESRNKNSVA | NASTRES | QQYHRLPLS | GP_Gen |
| 1.32 | 6/6 | KLSWDDMSHFNTRSAVA | NTTMRAF | QQYNRLPLD | En_Gibbs |
| 1.30 | 6/6 | MISQLTNMGTFAINSVA | QASVRNE | QQYDRLPLM | En_Gen |
| 0.70 | 6/6 | KLTMITGLEKVSTNNVA | EMETREK | QQYNRLPLA | En_Gen |
| 0.61 | 6/6 | TLSHSTDLETVHKNSIA | DLMTRES | QQYDRLPLS | En_HC |
| -0.32 | 6/6 | KLDQWQDYESRNKNSVA | QASTREQ | QQYHRLPLS | GP_Gibbs |
| 0.02 | 6/6 | KLDQSQLLESRNKQSVA | NASQRCS | QQYHRLPLS | GP_Gibbs |
| -0.21 | 6/6 | KLSQSELYESRNKNSVA | HASTRES | QQYHRLPLS | GP_Gen |
| 1.34 | 6/6 | KSSQSVDPESRNKNSVA | DASTRES | QQYHRLPLS | GP_HC |
| 2.34 | 1/6 | ILSQMLLTAGNKHNSVA | QANYREQ | QQYHRLPLS | En_HC |
| nd | 0/6 | KSSQSVGYESRNKNSVA | WASTREY | QQYHRLPCS | Ctrl |
| 1.14 | 6/6 | TIGDVTRMESNKKSSIA | DMSNRAA | QQYHRLPIS | En_HC |
| nd | 0/6 | KSRQSVLYESTNKNSVA | WASTRES | QQYHRDSLS | Ctrl |
| 1.18 | 6/6 | QLGHYKHENMAKWQNVA | NMTIREK | QQYAHLPLA | En_Gibbs |
| 0.81 | 6/6 | KQSQSVLYESVNKNSVA | DASTREV | QQYHRLPLS | GP_HC |

3 of these entries, quoted again:

| CDR-L1 | CDR-L2 | CDR-L3 | group | log10 Kd (nM), mean | replicates with signal |
|---|---|---|---|---|---|
| KSSQSVGYESRNKNSVA | WASTREY | QQYHRLPCS | Ctrl | nd | 0/6 |
| MISQLYNMGTFAINSVA | QASERNE | QQYDRLPLM | En_Gen | 1.44 | 6/6 |
| KTTQSVLYESRNKNSVA | KASTRES | QQYHRLPLI | Ctrl | 1.63 | 6/6 |

From the AlphaSeq antibody data of Li et al. 2023 (doi:10.1038/s41467-023-39022-2), copy in the FLAb collection.